The results in this text go back to patent EP2261258A1, “MCSP-aligned scFv antibody fragments and use of same” (Schuler, Gerold, priority 2009, dated 2010).

The target in experiment [1] is Melanom-assoziiertes Chondroitinsulfat Proteoglykan (MCSP) (human) (UniProt Q6UVK1). Kind of experiment: flow cytometry with MCSP-GFP on primary melanoma cells of patient 3.
Experiment [2] has the same target. Kind of experiment: flow cytometry with MCSP-GFP on primary melanoma cells of patient 2.
For experiment [3] the target is unchanged. Briefly: flow cytometry with MCSP-GFP on primary melanoma cells of patient 8.
For experiment [4] the target is unchanged. Kind of experiment: flow cytometry with MCSP-GFP on primary melanoma cells of patient 9.
For experiment [5] the target is unchanged. Kind of experiment: flow cytometry with MCSP-GFP on primary melanoma cells of patient 10.
Experiment [6] has the same target. Briefly: flow cytometry with MCSP-GFP on primary melanoma cells of patient 7.
For experiment [7] the target is unchanged. Kind of experiment: flow cytometry with MCSP-GFP on primary melanoma cells of patient 5.
The target is the same in experiment [8]. Briefly: flow cytometry with MCSP-GFP on primary melanoma cells of patient 4.
Experiment [9] shares this target. Kind of experiment: flow cytometry with MCSP-GFP on primary melanoma cells of patient 6.
The target is the same in experiment [10]. Kind of experiment: flow cytometry with MCSP-GFP on primary melanoma cells of patient 1.

Regarding “Fusionsprotein MCSP-GFP (from UniProt P42212 1-238)”, the ΔMFI (Mittlere Fluoreszenzaktivität über dem Hintergrund) in [1] stood at 182; in [2], 320; in [3], 627; in experiment [4], 11; in [5] it was 507; in experiment [6], 504. Moreover, the ΔMFI (Mittlere Fluoreszenzaktivität über dem Hintergrund) in experiment [7] was found to be 475; in experiment [8] it was 329; in [9], 425; in [10], 84.
